Assay [1] has as its target T1, human GLP-1 receptor (Homo sapiens, UniProt P43220).
T1 construct: expressed in transfected cells; host or cells: HEK-293
The experiment in a line: cAMP response (HTRF) of HEK-293 cells stably expressing human GLP-1 receptor. It counts as cell-based. The settings on record: Table 5, cAMP, HEK-293. For orientation: Time-resolved FRET reads energy transfer from a long-lived donor to a nearby acceptor.

By UniProt entry, the sequences of proteins in these tests, tags left out. Residues count along the entry.
UniProt P43220, 24-463: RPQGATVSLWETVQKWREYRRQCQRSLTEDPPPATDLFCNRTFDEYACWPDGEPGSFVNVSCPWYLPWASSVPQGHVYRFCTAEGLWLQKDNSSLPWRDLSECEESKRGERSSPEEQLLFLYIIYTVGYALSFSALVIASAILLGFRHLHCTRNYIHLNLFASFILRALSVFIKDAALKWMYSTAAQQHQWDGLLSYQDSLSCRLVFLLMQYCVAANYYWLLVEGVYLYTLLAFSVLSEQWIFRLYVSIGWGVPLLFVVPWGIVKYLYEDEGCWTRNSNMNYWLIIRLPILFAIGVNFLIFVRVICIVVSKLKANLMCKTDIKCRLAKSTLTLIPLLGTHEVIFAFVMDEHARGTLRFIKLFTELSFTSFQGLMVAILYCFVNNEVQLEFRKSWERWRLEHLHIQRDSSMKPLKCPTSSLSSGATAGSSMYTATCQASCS
UniProt P47871, 26-477: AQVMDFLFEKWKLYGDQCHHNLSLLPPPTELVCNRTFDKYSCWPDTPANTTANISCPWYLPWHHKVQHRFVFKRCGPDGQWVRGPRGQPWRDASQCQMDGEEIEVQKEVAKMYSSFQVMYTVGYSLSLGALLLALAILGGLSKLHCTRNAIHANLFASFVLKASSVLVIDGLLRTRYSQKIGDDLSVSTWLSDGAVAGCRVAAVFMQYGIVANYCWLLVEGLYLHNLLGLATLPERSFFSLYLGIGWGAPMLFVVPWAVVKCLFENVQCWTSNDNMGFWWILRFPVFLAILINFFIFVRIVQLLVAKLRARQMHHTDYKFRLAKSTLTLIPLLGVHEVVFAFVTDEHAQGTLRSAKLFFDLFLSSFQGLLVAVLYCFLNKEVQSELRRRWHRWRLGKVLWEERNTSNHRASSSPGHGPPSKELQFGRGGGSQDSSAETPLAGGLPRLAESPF

Assay [2] concerns the target T2, human glucagon receptor (Homo sapiens, UniProt P47871).
T2 construct: expressed in transfected cells; host or cells: HEK-293
The experiment in a line: cAMP response (HTRF) of HEK-293 cells stably expressing human glucagon receptor. It counts as cell-based. The conditions noted are these: Table 5, cAMP, HEK-293.

Structures are written as SMILES. Where two headings read alike, the source gives them in different places.

The values that follow come from patent US20140100156A1 (SANOFI, priority 2012, published 2014).

As to `CCCCCCCCCCCCCCCCCC(=O)N[C@@H](CCC(=O)NCCCC[C@H](NC(=O)[C@H](CCC(N)=O)NC(=O)[C@H](CCCCN)NC(=O)[C@H](CO)NC(=O)[C@H](CC(C)C)NC(=O)[C@H](CC(=O)O)NC(=O)[C@H](CO)NC(=O)[C@@H](NC(=O)[C@H](Cc1ccccc1)NC(=O)[C@@H](NC(=O)CNC(=O)[C@H](CCC(N)=O)NC(=O)C(C)(C)NC(=O)[C@@H](N)Cc1c[nH]cn1)[C@@H](C)O)[C@@H](C)O)C(=O)N[C@@H](CC(=O)O)C(=O)N[C@@H](CCC(=O)O)C(=O)N[C@@H](CCC(N)=O)C(=O)N[C@@H](CCCNC(=N)N)C(=O)N[C@@H](C)C(=O)N[C@@H](CCCCN)C(=O)N[C@@H](CCC(=O)O)C(=O)N[C@@H](Cc1ccccc1)C(=O)N[C@H](C(=O)N[C@@H](CCC(=O)O)C(=O)N[C@@H](Cc1c[nH]c2ccccc12)C(=O)N[C@@H](CC(C)C)C(=O)N[C@@H](CCCCN)C(=O)N[C@@H](CO)C(=O)NCC(=O)NCC(=O)N1CCC[C@H]1C(=O)N[C@@H](CO)C(=O)N[C@@H](CO)C(=O)NCC(=O)N[C@@H](C)C(=O)N1CCC[C@H]1C(=O)N1CCC[C@H]1C(=O)N1CCC[C@H]1C(=O)N[C@@H](CO)C(N)=O)[C@@H](C)CC)C(=O)O` [compound 174], the figures for the 50% effective concentration (EC50) in assay [1] (read-out: EC50 hGLP-1R) and in assay [2] (read-out: EC50 hGlucagon-R) were 2.6 pM and 0.0019 nM, respectively.
In the same order, the values of `CCCCCCCCCCCCCCCC(=O)N[C@@H](CCC(=O)NCCCC[C@H](NC(=O)[C@H](CCC(N)=O)NC(=O)[C@H](CCCCN)NC(=O)[C@H](CO)NC(=O)[C@H](CC(C)C)NC(=O)[C@H](CC(=O)O)NC(=O)[C@H](CO)NC(=O)[C@@H](NC(=O)[C@H](Cc1ccccc1)NC(=O)[C@@H](NC(=O)CNC(=O)[C@H](CCC(N)=O)NC(=O)[C@@H](CO)NC(=O)[C@@H](N)Cc1c[nH]cn1)[C@@H](C)O)[C@@H](C)O)C(=O)N[C@@H](CCC(=O)O)C(=O)N[C@@H](CO)C(=O)N[C@@H](CCCCN)C(=O)N[C@@H](C)C(=O)N[C@@H](C)C(=O)N[C@@H](CCC(N)=O)C(=O)N[C@@H](CC(C)C)C(=O)N[C@@H](Cc1ccccc1)C(=O)N[C@H](C(=O)N[C@@H](CCC(=O)O)C(=O)N[C@@H](Cc1c[nH]c2ccccc12)C(=O)N[C@@H](CC(C)C)C(=O)N[C@@H](CCCCN)C(=O)N[C@@H](C)C(=O)NCC(=O)NCC(=O)N1CCC[C@H]1C(=O)N[C@@H](CO)C(=O)N[C@@H](CO)C(=O)NCC(=O)N[C@@H](C)C(=O)N1CCC[C@H]1C(=O)N1CCC[C@H]1C(=O)N1CCC[C@H]1C(=O)N[C@@H](CO)C(N)=O)[C@@H](C)CC)C(=O)O` [compound 29] are 5.9 pM and 0.0879 nM.
The matching figures for `CCCCCCCCCCCCCCCCCC(=O)N[C@@H](CCC(=O)NCCCC[C@H](NC(=O)[C@H](CCC(N)=O)NC(=O)[C@H](CCCCN)NC(=O)[C@H](CO)NC(=O)[C@H](CC(C)C)NC(=O)[C@H](CC(=O)O)NC(=O)[C@H](CO)NC(=O)[C@@H](NC(=O)[C@H](Cc1ccccc1)NC(=O)[C@@H](NC(=O)CNC(=O)[C@H](Cc1c[nH]cn1)NC(=O)[C@@H](CO)NC(=O)[C@@H](N)Cc1c[nH]cn1)[C@@H](C)O)[C@@H](C)O)C(=O)N[C@@H](CC(=O)O)C(=O)N[C@@H](CO)C(=O)N[C@@H](CCCCN)C(=O)N[C@@H](C)C(=O)N[C@@H](C)C(=O)N[C@@H](CCC(N)=O)C(=O)N[C@@H](CC(C)C)C(=O)N[C@@H](Cc1ccccc1)C(=O)N[C@H](C(=O)N[C@@H](CCC(=O)O)C(=O)N[C@@H](Cc1c[nH]c2ccccc12)C(=O)N[C@@H](CC(C)C)C(=O)N[C@@H](CCCCN)C(=O)N[C@@H](C)C(=O)N[C@H](C)C(=O)NCC(=O)N1CCC[C@H]1C(=O)N[C@@H](CO)C(=O)N[C@@H](CO)C(=O)NCC(=O)N[C@@H](C)C(=O)N1CCC[C@H]1C(=O)N1CCC[C@H]1C(=O)N1CCC[C@H]1C(=O)N[C@@H](CO)C(N)=O)[C@@H](C)CC)C(=O)O` [compound 138]: 5.5 pM and 0.0092 nM.
Turning to `CCCCCCCCCCCCOc1ccc(C(=O)N[C@@H](CCC(=O)NCCCC[C@H](NC(=O)[C@H](CCC(N)=O)NC(=O)[C@H](CCCCN)NC(=O)[C@H](CO)NC(=O)[C@H](CC(C)C)NC(=O)[C@H](CC(=O)O)NC(=O)[C@H](CO)NC(=O)[C@@H](NC(=O)[C@H](Cc2ccccc2)NC(=O)[C@@H](NC(=O)CNC(=O)[C@H](CCC(N)=O)NC(=O)[C@@H](CO)NC(=O)[C@@H](N)Cc2c[nH]cn2)[C@@H](C)O)[C@@H](C)O)C(=O)N[C@@H](CCC(=O)O)C(=O)N[C@@H](CO)C(=O)N[C@@H](CCCNC(=N)N)C(=O)N[C@@H](C)C(=O)N[C@@H](C)C(=O)N[C@@H](CCC(N)=O)C(=O)N[C@@H](CC(=O)O)C(=O)N[C@@H](Cc2ccccc2)C(=O)N[C@H](C(=O)N[C@@H](CCC(=O)O)C(=O)N[C@@H](Cc2c[nH]c3ccccc23)C(=O)N[C@@H](CC(C)C)C(=O)N[C@@H](CCCCN)C(=O)N[C@@H](C)C(=O)NCC(=O)NCC(=O)N2CCC[C@H]2C(=O)N[C@@H](CO)C(=O)N[C@@H](CO)C(=O)NCC(=O)N[C@@H](C)C(=O)N2CCC[C@H]2C(=O)N2CCC[C@H]2C(=O)N2CCC[C@H]2C(=O)N[C@@H](CO)C(N)=O)[C@@H](C)CC)C(=O)O)cc1` [compound 9], the figures for the 50% effective concentration (EC50) in assay [1] (EC50 hGLP-1R) and in assay [2] (EC50 hGlucagon-R) were 2.2 pM and 0.0041 nM, respectively.
For the compound `CCCCCCCCCCCCCCCC(=O)NCCCC[C@H](NC(=O)[C@H](CCC(N)=O)NC(=O)[C@H](CCCCN)NC(=O)[C@H](CO)NC(=O)[C@H](CC(C)C)NC(=O)[C@H](CC(=O)O)NC(=O)[C@H](CO)NC(=O)[C@@H](NC(=O)[C@H](Cc1ccccc1)NC(=O)[C@@H](NC(=O)CNC(=O)[C@H](CCC(N)=O)NC(=O)C(C)(C)NC(=O)[C@@H](N)Cc1c[nH]cn1)[C@@H](C)O)[C@@H](C)O)C(=O)N[C@@H](CCC(=O)O)C(=O)N[C@@H](CO)C(=O)N[C@@H](CCCCN)C(=O)N[C@@H](C)C(=O)N[C@@H](C)C(=O)N[C@@H](CCC(N)=O)C(=O)N[C@@H](CC(=O)O)C(=O)N[C@@H](Cc1ccccc1)C(=O)N[C@H](C(=O)N[C@@H](CCC(=O)O)C(=O)N[C@@H](Cc1c[nH]c2ccccc12)C(=O)N[C@@H](CC(C)C)C(=O)N[C@@H](CCCCN)C(=O)N[C@@H](C)C(=O)NCC(=O)NCC(=O)N1CCC[C@H]1C(=O)N[C@@H](CO)C(=O)N[C@@H](CO)C(=O)NCC(=O)N[C@@H](C)C(=O)N1CCC[C@H]1C(=O)N1CCC[C@H]1C(=O)N1CCC[C@H]1C(=O)N[C@@H](CO)C(N)=O)[C@@H](C)CC` [compound 33], the values for the EC50 in assay [1] (read-out: EC50 hGLP-1R) and in assay [2] (read-out: EC50 hGlucagon-R) were 11.2 pM and 0.473 nM, respectively.
The matching figures for `CCCCCCCC/C=C\CCCCCCCC(=O)N[C@@H](CCC(=O)NCCCC[C@H](NC(=O)[C@H](CCC(N)=O)NC(=O)[C@H](CCCCN)NC(=O)[C@H](CO)NC(=O)[C@H](CC(C)C)NC(=O)[C@H](CC(=O)O)NC(=O)[C@H](CO)NC(=O)[C@@H](NC(=O)[C@H](Cc1ccccc1)NC(=O)[C@@H](NC(=O)CNC(=O)[C@H](CCC(N)=O)NC(=O)[C@@H](CO)NC(=O)[C@@H](N)Cc1c[nH]cn1)[C@@H](C)O)[C@@H](C)O)C(=O)N[C@@H](CCC(=O)O)C(=O)N[C@@H](CO)C(=O)N[C@@H](CCCNC(=N)N)C(=O)N[C@@H](C)C(=O)N[C@@H](C)C(=O)N[C@@H](CCC(N)=O)C(=O)N[C@@H](CC(=O)O)C(=O)N[C@@H](Cc1ccccc1)C(=O)N[C@H](C(=O)N[C@@H](CCC(=O)O)C(=O)N[C@@H](Cc1c[nH]c2ccccc12)C(=O)N[C@@H](CC(C)C)C(=O)N[C@@H](CCCCN)C(=O)N[C@@H](C)C(=O)NCC(=O)NCC(=O)N1CCC[C@H]1C(=O)N[C@@H](CO)C(=O)N[C@@H](CO)C(=O)NCC(=O)N[C@@H](C)C(=O)N1CCC[C@H]1C(=O)N1CCC[C@H]1C(=O)N1CCC[C@H]1C(=O)N[C@@H](CO)C(N)=O)[C@@H](C)CC)C(=O)O` [compound 55]: 5.4 pM and 0.0158 nM.
For the compound `CCCCCCCCCCCCCCCCCC(=O)N[C@@H](CCC(=O)NCCCC[C@H](NC(=O)[C@H](CCC(N)=O)NC(=O)[C@H](CCCCN)NC(=O)[C@H](CO)NC(=O)[C@H](CC(C)C)NC(=O)[C@H](CC(=O)O)NC(=O)[C@H](CO)NC(=O)[C@@H](NC(=O)[C@H](Cc1ccccc1)NC(=O)[C@@H](NC(=O)CNC(=O)[C@H](CCC(N)=O)NC(=O)C(C)(C)NC(=O)[C@@H](N)Cc1c[nH]cn1)[C@@H](C)O)[C@@H](C)O)C(=O)N[C@@H](CCC(=O)O)C(=O)N[C@@H](CCC(=O)O)C(=O)N[C@@H](CCC(=O)O)C(=O)N[C@@H](C)C(=O)N[C@@H](C)C(=O)N[C@@H](CCCNC(=N)N)C(=O)N[C@@H](CC(C)C)C(=O)N[C@@H](Cc1ccccc1)C(=O)N[C@H](C(=O)N[C@@H](CCC(=O)O)C(=O)N[C@@H](Cc1c[nH]c2ccccc12)C(=O)N[C@@H](CC(C)C)C(=O)N[C@@H](CCCCN)C(=O)N[C@@H](C)C(=O)NCC(=O)NCC(=O)N1CCC[C@H]1C(=O)N[C@@H](CO)C(=O)N[C@@H](CO)C(=O)NCC(=O)N[C@@H](C)C(=O)N1CCC[C@H]1C(=O)N1CCC[C@H]1C(=O)N1CCC[C@H]1C(=O)N[C@@H](CO)C(N)=O)[C@@H](C)CC)C(=O)O` [compound 215], the EC50 – broadly, the concentration giving half of the maximal effect – in assay [1] (read-out: EC50 hGLP-1R) came out at 5.3 pM; in assay [2] (read-out: EC50 hGlucagon-R), 0.0426 nM.
Take `CCCCCCCCCCCCCCCCNC(=O)[C@H](CO)NC(=O)[C@@H]1CCCN1C(=O)[C@@H]1CCCN1C(=O)[C@@H]1CCCN1C(=O)[C@H](C)NC(=O)CNC(=O)[C@H](CO)NC(=O)[C@H](CO)NC(=O)[C@@H]1CCCN1C(=O)CNC(=O)CNC(=O)[C@H](CC(N)=O)NC(=O)[C@H](CCCCN)NC(=O)[C@H](CC(C)C)NC(=O)[C@H](Cc1c[nH]c2ccccc12)NC(=O)[C@H](CCC(=O)O)NC(=O)[C@@H](NC(=O)[C@H](Cc1ccccc1)NC(=O)[C@H](CC(=O)O)NC(=O)[C@H](CCC(N)=O)NC(=O)[C@H](C)NC(=O)[C@H](CCCNC(=N)N)NC(=O)[C@H](CCCNC(=N)N)NC(=O)[C@H](CO)NC(=O)[C@H](CC(=O)O)NC(=O)[C@H](CCCCNC(=O)CC[C@H](NC(=O)CCCCCCCCCCCCCCC)C(=O)O)NC(=O)[C@H](CCC(N)=O)NC(=O)[C@H](CCCCN)NC(=O)[C@H](CO)NC(=O)[C@H](CC(C)C)NC(=O)[C@H](CC(=O)O)NC(=O)[C@H](CO)NC(=O)[C@@H](NC(=O)[C@H](Cc1ccccc1)NC(=O)[C@@H](NC(=O)CNC(=O)[C@H](CCC(N)=O)NC(=O)[C@@H](CO)NC(=O)[C@@H](N)Cc1c[nH]cn1)[C@@H](C)O)[C@@H](C)O)[C@@H](C)CC` [compound 106]: the 50% effective concentration (EC50) in assay [1] (read-out: EC50 hGLP-1R) was determined as 210 pM; in assay [2] (read-out: EC50 hGlucagon-R), 0.0105 nM.
